From ChEMBL document CHEMBL1128296, “Quantitative binding site model generation: compass applied to multiple chemotypes targeting the 5-HT1A receptor” (J Med Chem, 1995)

Assay: Tested for activity against 5-hydroxytryptamine 1A receptor from bovine hippocampus

## CCCN1CC[C@H]2c3c(O)cccc3CC[C@H]21
  Ki: 3 nM
